# Laboratory results: IntAct's records for PubMed 29691401
# B1: "DNA (cytosine-5)-methyltransferase 1" (Homo sapiens), P26358 (parent)
# chain: MPARTAPARVPTLAVPAISLPDDVRRRLKDLERDSLTEKECVKEKLNLLHEFLQTEIKNQLCDLETKLRKEELSEEGYLAKVKSLLNKDLSLENGAHAYNREVNGRLENGNQARSEARRVGMADANSPPKPLSKPRTPRRSKSDGEAKPEPSPSPRITRKSTRQTTITSHFAKGPAKRKPQEESERAKSDESIKEEDKDQDEKRRRVTSRERVARPLPAEEPERAKSGTRTEKEEERDEKEEKRLRSQTKEPTPKQKLKEEPDREARAGVQADEDEDGDEKDEKKHRSQPKDLAAKRRPEEKEPEKVNPQISDEKDEDEKEEKRRKTTPKEPTEKKMARAKTVMNSKTHPPKCIQCGQYLDDPDLKYGQHPPDAVDEPQMLTNEKLSIFDANESGFESYEALPQHKLTCFSVYCKHGHLCPIDTGLIEKNIELFFSGSAKPIYDDDPSLEGGVNGKNLGPINEWWITGFDGGEKALIGFSTSFAEYILMDPSPEYAPIFGLMQEKIYISKIVVEFLQSNSDSTYEDLINKIETTVPPSGLNLNRFTEDSLLRHAQFVVEQVESYDEAGDSDEQPIFLTPCMRDLIKLAGVTLGQRRAQARRQTIRHSTREKDRGPTKATTTKLVYQIFDTFFAEQIEKDDREDKENAFKRRRCGVCEVCQQPECGKCKACKDMVKFGGSGRSKQACQERRCPNMAMKEADDDEEVDDNIPEMPSPKKMHQGKKKKQNKNRISWVGEAVKTDGKKSYYKKVCIDAETLEVGDCVSVIPDDSSKPLYLARVTALWEDSSNGQMFHAHWFCAGTDTVLGATSDPLELFLVDECEDMQLSYIHSKVKVIYKAPSENWAMEGGMDPESLLEGDDGKTYFYQLWYDQDYARFESPPKTQPTEDNKFKFCVSCARLAEMRQKEIPRVLEQLEDLDSRVLYYSATKNGILYRVGDGVYLPPEAFTFNIKLSSPVKRPRKEPVDEDLYPEHYRKYSDYIKGSNLDAPEPYRIGRIKEIFCPKKSNGRPNETDIKIRVNKFYRPENTHKSTPASYHADINLLYWSDEEAVVDFKAVQGRCTVEYGEDLPECVQVYSMGGPNRFYFLEAYNAKSKSFEDPPNHARSPGNKGKGKGKGKGKPKSQACEPSEPEIEIKLPKLRTLDVFSGCGGLSEGFHQAGISDTLWAIEMWDPAAQAFRLNNPGSTVFTEDCNILLKLVMAGETTNSRGQRLPQKGDVEMLCGGPPCQGFSGMNRFNSRTYSKFKNSLVVSFLSYCDYYRPRFFLLENVRNFVSFKRSMVLKLTLRCLVRMGYQCTFGVLQAGQYGVAQTRRRAIILAAAPGEKLPLFPEPLHVFAPRACQLSVVVDDKKFVSNITRLSSGPFRTITVRDTMSDLPEVRNGASALEISYNGEPQSWFQRQLRGAQYQPILRDHICKDMSALVAARMRHIPLAPGSDWRDLPNIEVRLSDGTMARKLRYTHHDRKNGRSSSGALRGVCSCVEAGKACDPAARQFNTLIPWCLPHTGNRHNHWAGLYGRLEWDGFFSTTVTNPEPMGKQGRVLHPEQHRVVSVRECARSQGFPDTYRLFGNILDKHRQVGNAVPPPLAKAIGLEIKLCMLAKARESASAKIKEEEAAKD
# partner: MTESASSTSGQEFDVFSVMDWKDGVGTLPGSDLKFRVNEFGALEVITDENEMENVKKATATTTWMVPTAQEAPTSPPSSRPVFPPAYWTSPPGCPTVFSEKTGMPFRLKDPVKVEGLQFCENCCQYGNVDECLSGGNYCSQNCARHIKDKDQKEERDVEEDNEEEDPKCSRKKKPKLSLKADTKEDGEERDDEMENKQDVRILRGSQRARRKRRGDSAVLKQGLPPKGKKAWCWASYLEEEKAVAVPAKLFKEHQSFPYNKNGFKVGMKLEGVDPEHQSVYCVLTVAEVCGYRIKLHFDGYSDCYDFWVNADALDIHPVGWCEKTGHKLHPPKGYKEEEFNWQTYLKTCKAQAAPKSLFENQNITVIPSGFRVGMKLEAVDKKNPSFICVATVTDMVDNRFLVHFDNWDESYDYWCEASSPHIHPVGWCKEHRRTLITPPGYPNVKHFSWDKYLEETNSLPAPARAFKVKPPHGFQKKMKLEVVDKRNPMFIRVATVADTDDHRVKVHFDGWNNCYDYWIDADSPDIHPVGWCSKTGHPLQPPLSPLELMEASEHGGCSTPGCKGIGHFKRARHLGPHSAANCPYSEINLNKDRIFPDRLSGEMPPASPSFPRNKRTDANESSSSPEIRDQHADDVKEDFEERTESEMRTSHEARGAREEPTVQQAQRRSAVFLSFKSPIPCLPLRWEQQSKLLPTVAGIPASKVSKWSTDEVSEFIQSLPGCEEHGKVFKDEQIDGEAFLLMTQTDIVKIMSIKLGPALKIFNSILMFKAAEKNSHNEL
# B2: "DNA (cytosine-5)-methyltransferase 1" (Homo sapiens), P26358 (parent)
# chain: B1 chain
# Variants of: B1
# Settings: with lmbl3_human L3MBTL3, Q96JM7
row,effect of a mutation on the interaction,Variant
1,disrupting interaction strength,K142A

# Variants of: B2
# Settings: with dcaf5_human DCAF5, Q96JK2
row,effect of a mutation on the interaction,Variant
1,disrupting interaction strength,K142A
